Test results reported in paper PMC5234269 (2015).

Amino acid sequences for entries named in this document (tags omitted). A change or cut given only in a name is not applied to a line headed by its entry.
UniProt P14416, whole entry: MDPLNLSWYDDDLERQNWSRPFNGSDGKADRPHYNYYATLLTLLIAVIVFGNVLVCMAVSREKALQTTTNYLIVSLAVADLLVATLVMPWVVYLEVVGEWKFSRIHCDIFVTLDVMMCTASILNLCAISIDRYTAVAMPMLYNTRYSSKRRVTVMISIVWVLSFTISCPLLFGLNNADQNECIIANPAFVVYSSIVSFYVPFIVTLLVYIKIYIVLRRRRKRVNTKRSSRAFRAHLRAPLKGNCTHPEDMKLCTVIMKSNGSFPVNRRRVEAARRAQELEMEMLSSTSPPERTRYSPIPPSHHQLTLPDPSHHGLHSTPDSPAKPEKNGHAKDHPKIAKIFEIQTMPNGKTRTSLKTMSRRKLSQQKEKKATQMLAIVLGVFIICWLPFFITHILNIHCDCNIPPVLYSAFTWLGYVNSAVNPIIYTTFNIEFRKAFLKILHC

Target: D2R (Homo sapiens, UniProt P14416)
Conditions: result in words

CN1CN(c2ccccc2)C2(CCN(CCCC(=O)c3ccc(F)cc3)CC2)C1=O [methylspiperone]
effect of presence or absence of Na+ on affinity for the D2R: does not affect
